## Ab-14 heavy chain CDR variants: yeast mating affinities

Source: Engelhart et al. 2022 (doi:10.1038/s41597-022-01779-4), MIT Lincoln Laboratory and A-Alpha Bio; data file from the FLAb repository.

Antigen: PDVDLGDISGINAS, a 14-residue peptide of the SARS-CoV-2 spike HR2 region.

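In library AAYL49, one, two or three CDR residues were substituted; doubles and triples were drawn at random. Affinity was read by AlphaSeq, a pooled yeast mating assay with surface-displayed partners. After mating in shaken culture at 30 °C for 16 h, diploids were selected and their barcode pairs sequenced. The ratio of observed to expected reads was calibrated, replicate by replicate, on BCL2-family standards whose Kd was known from biolayer interferometry. The assay was run in three technical replicates.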

Parent: Ab-14, a human scFv built as VH, the linker GGGGSGGGGSGGGGS, VL. Only the CDRs of the heavy chain vary.
VH: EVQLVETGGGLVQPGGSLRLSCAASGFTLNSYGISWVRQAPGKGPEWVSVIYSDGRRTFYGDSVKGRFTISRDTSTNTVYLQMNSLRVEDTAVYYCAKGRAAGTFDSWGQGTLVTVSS
VL: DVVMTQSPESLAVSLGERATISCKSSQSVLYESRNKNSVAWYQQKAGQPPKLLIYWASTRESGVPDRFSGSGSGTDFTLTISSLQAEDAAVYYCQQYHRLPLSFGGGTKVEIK

Substitutions are numbered in sequence along the VH above, starting at 1 (not Kabat).
The read-out is the apparent dissociation constant on a log10 scale (nM): the lower, the stronger.
The mean shown is taken over the replicates in which the pair was detected.
A pair that was not seen in that replicate is written "n.d."; this usually means weak binding, but a binder can also be missed.
Three control strains display no target. For library AAYL49, 15% of the pairings with them gave a signal, with a median of 4.06 and one signal in twenty below 2.83, so weak values seen in few replicates may be background. The control count says in how many pairings with the empty strains this scFv gave a signal, with their mean in brackets.
In this assay the parent's reference entry averaged 0.65; its copy inside this library read 4.11 (one replicate of three).

changes	replicates, log10 nM	log10 Kd (nM), mean	signal with controls
Y32T S35M Y52W	n.d. 4.17 4.46	4.31	8/9 (4.74)
D62S V64I R100L	3.38 3.85 n.d.	3.62	0/9
G26V S63D K65L	4.16 2.81 n.d.	3.49	3/9 (4.20)
N30L I51G D62Y	4.89 4.63 n.d.	4.76	2/9 (4.21)
S31H Y32N F59R	3.67 n.d. 4.87	4.27	1/9 (3.69)
F27L I51K V64N	3.21 n.d. 4.02	3.62	1/9 (2.46)
G33A S53P	n.d. n.d. n.d.	n.d.	2/9 (3.50)
F27G Y52E	n.d. 2.79 n.d.	2.79	2/9 (3.76)
Y32D S63W K65D	n.d. 3.38 3.62	3.50	1/9 (4.27)
Y32I R56K G99A	n.d. n.d. n.d.	n.d.	0/9
F27E Y60S K65Q	n.d. n.d. n.d.	n.d.	1/9 (2.46)
V64H K65D G99F	n.d. 5.21 5.90	5.56	2/9 (4.22)
I34L G103C	n.d. 4.25 n.d.	4.25	4/9 (4.31)
Y32G A102Y D106N	n.d. n.d. n.d.	n.d.	2/9 (4.10)
Y32H K65M D106Y	n.d. n.d. n.d.	n.d.	0/9
Y32K V50A T58K	n.d. n.d. n.d.	n.d.	0/9
G26E Y32F A102N	n.d. n.d. n.d.	n.d.	0/9
K65N	1.05 1.10 1.08	1.08	3/9 (4.34)
S31N F59Q	n.d. n.d. n.d.	n.d.	1/9 (2.98)
F27A I51P Y52D	n.d. n.d. n.d.	n.d.	0/9
A102L G103Q S107A	0.63 1.13 0.70	0.82	0/9
G55Q R57C Y60N	n.d. n.d. 5.05	5.05	2/9 (3.70)
F27T D106K	n.d. n.d. n.d.	n.d.	0/9
D62S	n.d. n.d. n.d.	n.d.	0/9
T58G F59D	n.d. n.d. n.d.	n.d.	0/9
F59S T104E D106K	1.18 1.12 1.41	1.24	4/9 (4.66)
Y60C K65E	3.09 n.d. n.d.	3.09	1/9 (5.35)
G33C I34D K65M	6.38 3.50 n.d.	4.94	3/9 (4.44)
T28Y I34P	n.d. n.d. n.d.	n.d.	1/9 (2.71)
T58W A102G S107K	n.d. 3.79 n.d.	3.79	5/9 (4.18)
R57K Y60D S63M	n.d. 5.27 5.97	5.62	3/9 (3.93)
S35N Y52D D62P	n.d. n.d. n.d.	n.d.	5/9 (4.11)
N30I Y60E A101T	n.d. n.d. n.d.	n.d.	0/9
N30G V50R S63P	n.d. n.d. 3.93	3.93	2/9 (2.91)
L29T V64W R100Q	n.d. n.d. n.d.	n.d.	0/9
Y52C Y60G G99P	n.d. 4.98 4.06	4.52	0/9
V64K K65F T104D	4.42 n.d. n.d.	4.42	4/9 (3.83)
G55D R100S T104A	4.26 3.60 n.d.	3.93	2/9 (4.27)
S35A	n.d. 4.45 n.d.	4.45	1/9 (3.03)
F27W S53T	4.16 3.43 n.d.	3.79	2/9 (5.02)

Again, the first 5 entries without any signal:

changes	replicates, log10 nM	log10 Kd (nM), mean	signal with controls
G33A S53P	n.d. n.d. n.d.	n.d.	2/9 (3.50)
Y32I R56K G99A	n.d. n.d. n.d.	n.d.	0/9
F27E Y60S K65Q	n.d. n.d. n.d.	n.d.	1/9 (2.46)
Y32G A102Y D106N	n.d. n.d. n.d.	n.d.	2/9 (4.10)
Y32H K65M D106Y	n.d. n.d. n.d.	n.d.	0/9